Results published in patent US7348300B2, “Acetylenic diol ethylene oxide/propylene oxide adducts and processes for their manufacture” (Air Products and Chemicals, Inc., priority 1999, dated 2008).

Experiments:
[1] = Dynamic surface tension of aqueous solutions, maximum bubble pressure method; conditions: for Dynamic Surface Tension: 0.1 wt % solution in water
Source text: In the following Examples dynamic surface tension data were obtained for aqueous solutions of various compounds using the maximum bubble pressure method at bubble rates from 0.1 bubbles/second (b/s) to 20 b/s. […] In practical terms, high bubble rates correspond to high printing speeds in lithographic printing, high spray or roller velocities in coating applications, and rapid application rates for agricultural products.
This value is a measure of the efficiency of a surfactant.
The critical aggregation concentrations (solubility limit or critical micelle concentration) were determined by intersection of the linear portion of a surface tension/ In concentration curve with the limiting surface tension as is described in many textbooks. The limiting surface tensions at 0.1 and 20 bubbles/second (b/s) represent the lowest surface tensions in water which can be achieved at the given surface creation rate for a given surfactant regardless of the amount of surfactant used. These values give information about the relative ability to a surfactant to reduce surface defects under near-equilibrium condition (0.1 b/s) through very dynamic conditions (20 b/s). Lower surface tensions would allow the elimination of defects upon application of a formulation onto lower energy surfaces.
Process solutions containing 0.1 weight percent of a surfactant derived from 2,5,8,11-tetramethyl-6-dodecyne-5,8-diol or containing a fluorosurfactant, potassium perfluorooctane carboxylate provided by 3M of […]. were prepared in order to compare the equilibrium surface tension (EST) and dynamic surface tension (DST). The EST for both solutions was measured using the Wilhemy plate method on a […] manufactured by Kruss, Inc. of Charlotte, N.C. The DST of each process solution was measured via the maximum bubble pressure method.

[2] = Ross-Miles foam test based upon ASTM D 1173-53; type: physicochemical; conditions: 0.1 wt % solution
Method: In this test, a 0.1 wt % solution of the surfactant is added from an elevated foam pipette to a foam receiver containing the same solution. The foam height is measured at the completion of the addition (“Initial Foam Height”) and the time required for the foam to dissipate is recorded (“Time to 0 Foam”). This test provides a comparison between the foaming characteristics of various surfactant solutions. In general, in coatings, inks, and agricultural formulations, foam is undesirable because is complicates handling and can lead to coating and print defects, and to inefficient application of agricultural materials.

5 mole ethylene oxide, 2 mole propylene oxide adduct of 2,4,7,9-tetramethyl-5-decyne-4,7-diol [Example 6]
Dynamic Surface Tension ([1]; 1 b/s): 30.0 dyne/cm
Dynamic Surface Tension ([1]; 6 b/s): 37.1 dyne/cm
Sol Limit / critical aggregation concentration (CAG) ([1]; solubility limit or critical micelle concentration in water): 0.10 wt %
RM Foam initial (Initial Foam Height) [2]: 1.1 cm
RM Foam t to 0 (Time to 0 Foam) [2]: 5 s
